Screens deposited in PubChem by several laboratories.
Rows were chosen to be rich in hits. Some 4.2% of all compounds tested hit in one or more screens of this group.
MC4R ag barr = agonists of human melanocortin 4 receptor (MC4R) beta-arrestin; U2OS MC4R beta-arrestin complementation, luminescence; percent of melanotan II response, DMSO zero; hit rate 0.98% among 360,000; activation, % at 8.9 µM; AID 540308;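 active = activation above a per-plate cutoff, the mean activation of sample wells on that plate plus 3 SD, cut at about 8% in these data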
HDAC3 inhib = human HDAC3 inhibition; O15379; recombinant HDAC3, fluorogenic peptide/trypsin coupled, fluorescence; inhibition, % at 8.3 µM; hit rate 0.15% among 320,000; in the data active = inhibition above about 26%, passing the limit was not always enough
MC4R antagonist = blocks human MC4R cAMP signaling. P32245. MC4R-expressing cells, MTII-stimulated cAMP, LANCE TR-FRET. inhibition, % at 6.5 µM. hit rate 0.48% among 360,000;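 active = inhibition above its plate's cutoff, the mean of tested wells on that plate plus 3 SD, cut at about 29% in these data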
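Assay system: human MC4R-expressing U2OS cells; reagent: Melanotan II stimulation of cells; dosing: 6.5 µM single dose; timing: compound 30 min, challenge 1 h, detection 1 h; signal: TR-FRET cAMP assay; replicates: one well per compound, no replicates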
UUG fidelity = yeast start codon fidelity modulation; activity score, % at 18.7 µM; actives 0.13% (n = 350,000); S. cerevisiae UUG-firefly luciferase reporter, luminescence/redox ratio; AID 602363;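 active means replicate mean at a twofold rise or more, about +100% in these data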;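 further: firefly luciferase made from a UUG start codon reports start codon fidelity; reporter light over untreated wells divided by growth signal over untreated wells; some hits fall short of that in this replicate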
ALR inh = human ALR oxidase inhibition via reduced H2O2; P55789; purified ALR, DTT oxidation, H2O2 HRP-luminol luminescence; inhibition, % (concentration not given with the values); 3.8% of 290,000 active; AID 485317;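 active = mean and each replicate at 75% or more; inconclusive = only one of the two met; inactive = neither met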;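 note: stock transfer was 7.5 nL into about 7.5 µL; 0% = neutral wells and 100% = wells with inactivated enzyme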
NALP1 inh = inhibitors of NALP1 inflammasome in yeast | S. cerevisiae NALP1/ASC/caspase-1 growth, X-gal OD620, 72 h | inhibition, % at 10 µM | hit rate 0.61% among 280,000; in the data active = inhibition mostly above about 24%, no sharp cut-off; inactive = mostly below about 32%
MC4R barr ag = human MC4R beta-arrestin agonism confirmation; hit rate 31% among 2,400; shares compounds with MC4R ag barr; activation, % at 8.9 µM; U2OS MC4R beta-arrestin recruitment, luminescence; scaled DMSO 0%, Melanotan II 100%;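 active = mean activation across replicates above the hit cutoff set in the earlier primary screen, cut at about 8% in these data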
MOR DOR agonist = activates mu-delta opioid heterodimer, MC4R agonist counter-screen; shares compounds with MC4R ag barr; U2OS PathHunter beta-arrestin, beta-gal luminescence; percent of deltorphin B response, DMSO zero; activation, % at 9.2 µM; hit rate 5.8% among 2,400; AID 602194;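 active = mean activation across replicates exceeds the hit threshold derived in the earlier primary screen, cut at about 18% in these data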
A number is an active result; - = inactive; . = no result.

SMILES	MC4R ag barr	HDAC3 inhib	MC4R antagonist	UUG fidelity	ALR inh	NALP1 inh	MC4R barr ag	MOR DOR agonist
C=C(C)c1cccc(C(C)(C)NC(=O)NCc2ccc(OC)c(OC)c2)c1	-	-	-	.	-	-	.	.
C=C(C)c1cccc(C(C)(C)NC(=O)NCc2ccc(OC)cc2)c1	17	-	-	-	-	-	-	-
COc1ccc(S(=O)(=O)Nc2ccc3c(c2)CC(=O)N([C@@H](C)CO)C[C@@H](C)[C@H](CN(C)Cc2ccncc2)O3)cc1	.	.	.	-	.	.	.	.
CO[C@@H]1CN(C)C(=O)c2ccc(NC(C)=O)cc2OC[C@H](C)N(C(=O)C2CCCCC2)C[C@H]1C	.	.	.	-	.	.	.	.
O=C(C[C@H]1C[C@H]2c3cc(NC(=O)Nc4ccc(C(F)(F)F)cc4)ccc3O[C@H]2[C@H](CO)O1)NC1CCCCC1	.	.	.	-	.	.	.	.
C[C@@H]1CN([C@@H](C)CO)C(=O)Cc2cc(NC(=O)CCC(F)(F)F)ccc2O[C@@H]1CN(C)C(=O)Nc1ccc(F)cc1	.	.	.	-	.	.	.	.
CC(=O)Nc1cc(-c2cccc(C(=O)NCCN(C)C)c2)cn2c(-c3ccc(C(C)=O)cc3)cnc12	-	.	-	-	.	.	.	.
CC(=O)Nc1cc(-c2ccc(C(=O)NC3CC3)cc2)cn2c(-c3cccc(C(C)=O)c3)cnc12	16	.	-	-	.	.	18	-
CC(=O)Nc1cccc(-c2cc(NC(C)=O)c3ncc(-c4cccc(C(F)(F)F)c4)n3c2)c1	-	.	-	-	.	.	.	.
CC(=O)Nc1cc(-c2ccc(C(=O)NC3CC3)cc2)cn2c(-c3cccc(C(F)(F)F)c3)cnc12	11	.	-	-	.	.	20	-
Cc1noc(C)c1S(=O)(=O)N(C)C[C@@H]1Oc2ccc(NS(=O)(=O)c3ccccc3)cc2C(=O)N([C@H](C)CO)C[C@@H]1C	.	.	.	-	.	.	.	.
O=C(NCc1csc(-c2cccs2)n1)Nc1cccc(Cl)c1	9.8	-	-	.	-	-	-	-
Cc1noc(C)c1S(=O)(=O)Nc1ccc2c(c1)C(=O)N([C@H](C)CO)C[C@@H](C)[C@H](CN(C)CC1CCCCC1)OCCCC[C@@H](C)O2	.	.	.	-	.	.	.	.
S=C1Nc2ccccc2Sc2ccc(Cl)cc21	23	-	-	-	-	-	10	-
COc1cc2nc(SCc3ccc(C(F)(F)F)cc3)n(Cc3cccs3)c(=N)c2cc1OC	14	-	-	-	-	-	-	-
COc1cc2nc(SCc3ccc(Cl)cc3Cl)n(Cc3cccs3)c(=N)c2cc1OC	-	-	-	-	-	-	.	.
COc1ccc(Cn2c(SCc3ccc(C)cc3)nc3cc(OC)c(OC)cc3c2=N)cc1Cl	28	-	-	-	-	.	-	19
COc1ccc(Cn2c(SCc3cc(C)ccc3C)nc3cc(OC)c(OC)cc3c2=N)cc1	21	-	-	-	-	-	-	20
COc1cccc(CN2[C@@H]3CN(C(=O)CC(F)(F)F)c4ccccc4[C@@H]3[C@@H]2CO)c1	.	.	.	-	.	.	.	.
O=C1CN(C(=O)COC(=O)/C=C/c2ccc(OC(F)F)cc2)c2ccccc2N1	11	-	-	-	-	-	-	-
Cc1ccc(/C=C/C(=O)OCC(=O)N2CC(=O)Nc3ccccc32)o1	-	-	-	.	-	-	.	.
C[C@@H]1CN([C@@H](C)CO)C(=O)c2cc(NC(=O)Cn3cnnn3)ccc2O[C@@H]1CN(C)C(=O)NC1CCCCC1	.	.	.	-	.	.	.	.
CCOc1ccc(-c2nnn(CC(=O)Nc3cc(OC)ccc3OC)n2)cc1OCC	-	-	-	-	-	-	.	.
CCOc1ccccc1NC(=O)Cn1nnc(-c2ccc(OCC)c(OCC)c2)n1	9.7	-	-	-	-	-	-	-
CCOc1ccc(-c2nnn(CC(=O)Nc3cc(OC)cc(OC)c3)n2)cc1OCC	11	-	-	-	-	-	-	-
SMILES	MC4R ag barr	HDAC3 inhib	MC4R antagonist	UUG fidelity	ALR inh	NALP1 inh	MC4R barr ag	MOR DOR agonist
CCOc1ccc(-c2nnn(CC(=O)NCc3ccco3)n2)cc1OCC	-	-	-	-	-	-	.	.
C[C@@H]1CN([C@H](C)CO)C(=O)c2cc(N(C)C)ccc2O[C@@H](C)CCCCO[C@@H]1CN(C)Cc1ccc2c(c1)OCO2	.	.	.	-	.	.	.	.
O=C(C[C@@H]1C[C@H]2c3cc(NC(=O)Nc4ccccc4)ccc3O[C@H]2[C@@H](CO)O1)NCc1ccccn1	.	.	.	-	.	.	.	.
C[C@@H]1CCCCO[C@H](CN(C)C(=O)NC2CCCCC2)[C@H](C)CN([C@H](C)CO)C(=O)c2cc(NS(=O)(=O)c3cccs3)ccc2O1	.	.	.	-	.	.	.	.
Cc1cccc(N(C(=O)C(F)(F)F)C(C(=O)NC2CCCCC2)c2cccs2)c1 (stereo not drawn)	20	-	-	-	-	-	-	-
Cc1cc(C)cc(N(C(=O)C(F)(F)F)C(C(=O)NC2CCCCC2)c2cccs2)c1 (stereo not drawn)	-	-	-	-	-	-	.	.
C[C@H](CO)N1C[C@H](C)[C@@H](CN(C)C)Oc2ccc(NC(=O)Nc3ccc(F)cc3)cc2C1=O	.	.	.	-	.	.	.	.
COc1ccc(S(=O)(=O)Nc2ccc3c(c2)CC(=O)N([C@H](C)CO)C[C@H](C)[C@@H](CN(C)S(=O)(=O)c2ccc(Cl)cc2)O3)cc1	.	.	.	-	.	.	.	.
COc1cc(/C=N/NC(=O)c2ccccn2)ccc1OC(=O)c1ccccc1Br	12	-	-	-	-	-	-	-
COc1cc(/C=N/NC(=O)c2ccccn2)ccc1OC(=O)c1ccc(Br)cc1	-	-	-	-	-	-	.	.
O=C(COC(=O)c1ccccc1NC(=O)c1ccco1)NCCC1=CCCCC1	14	-	-	-	-	-	-	-
O=C(COC(=O)c1ccccc1O)NCCC1=CCCCC1	-	-	-	.	-	-	.	.
CCSc1ccc(-c2nn(-c3ccccc3)cc2/C=C(/C#N)C(=O)NCCCOC)cc1	22	-	-	.	-	-	40	19
O=C(OC(C(=O)NC1CCCCC1)c1ccc(C(F)(F)F)cc1)c1ccco1 (stereo not drawn)	11	.	-	-	.	.	-	-
CCOC(=O)c1c(NC(=O)COC(=O)c2nccnc2N)sc2c1CCC2	16	-	-	-	-	.	-	-
N#Cc1c(NC(=O)COC(=O)c2nccnc2N)sc2c1CCCC2	-	-	-	-	-	.	.	.
O=C(Cc1ccncc1)NCC[C@@H]1CC[C@@H](NC(=O)C2CCOCC2)[C@@H](CO)O1	.	.	.	-	.	.	.	.
O=C(NN=Cc1ccc2c(c1)CCC2)c1cccc([N+](=O)[O-])c1	22	.	-	-	.	.	13	-
O=C(Cc1cccc2ccccc12)N/N=C/c1ccncc1	-	-	-	.	-	-	.	.
O=C(Cc1cccc2ccccc12)NN=Cc1ccc2c(c1)CCC2	13	.	-	-	.	.	-	-
O=C(N/N=C/c1ccncc1)c1cccc([N+](=O)[O-])c1	.	-	.	.	-	-	.	.
